Usually IC50 stands for the concentration that inhibits the measured activity by half. Low readings indicate higher potency, high ones lower potency.

Protein sequences, listed by entry. Tags and fused reporters are not part of them.
UniProt P25101, whole entry: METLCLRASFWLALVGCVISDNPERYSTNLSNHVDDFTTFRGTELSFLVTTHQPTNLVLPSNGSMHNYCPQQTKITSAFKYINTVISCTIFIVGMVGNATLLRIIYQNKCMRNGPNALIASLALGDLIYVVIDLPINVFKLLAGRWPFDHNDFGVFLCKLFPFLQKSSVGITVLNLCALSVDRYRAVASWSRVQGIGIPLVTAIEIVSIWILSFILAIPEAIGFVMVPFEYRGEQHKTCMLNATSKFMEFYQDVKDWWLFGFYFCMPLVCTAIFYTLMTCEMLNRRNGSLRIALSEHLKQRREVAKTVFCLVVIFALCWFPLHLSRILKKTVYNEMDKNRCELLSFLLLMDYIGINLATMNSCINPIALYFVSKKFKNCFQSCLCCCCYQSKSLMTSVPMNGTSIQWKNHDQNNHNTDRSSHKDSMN

Structures are written as SMILES.

This note sets out measurements from ChEMBL document CHEMBL1134271 (J Med Chem, 2001).

The target in assay [1] is T1, Endothelin receptor type B (Homo sapiens, UniProt P24530).
T1 sequence (P24530 whole entry): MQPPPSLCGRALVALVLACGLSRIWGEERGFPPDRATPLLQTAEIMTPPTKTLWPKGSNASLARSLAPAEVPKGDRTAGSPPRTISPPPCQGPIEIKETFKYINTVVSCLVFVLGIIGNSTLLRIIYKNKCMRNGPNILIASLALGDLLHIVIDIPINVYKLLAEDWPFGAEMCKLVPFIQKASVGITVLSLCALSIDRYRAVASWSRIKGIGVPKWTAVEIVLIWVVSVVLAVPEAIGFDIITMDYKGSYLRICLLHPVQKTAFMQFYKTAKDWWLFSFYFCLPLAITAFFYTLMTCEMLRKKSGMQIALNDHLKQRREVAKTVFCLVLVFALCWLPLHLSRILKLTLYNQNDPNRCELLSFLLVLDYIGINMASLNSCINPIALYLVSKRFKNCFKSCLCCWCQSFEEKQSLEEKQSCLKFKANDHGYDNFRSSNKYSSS
Put plainly: Inhibitory activity against human endothelin B receptor.

In another assay the target is Endothelin-1 receptor (Homo sapiens, UniProt P25101). Put plainly: Inhibitory activity against human endothelin A receptor. A digest of the protocol: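 Radioligand binding on human ETA receptor expressed in CHO cells, measuring displacement of [125I]ET-1. Eleven concentrations from 10^-10 to 10^-5 M were tested. IC50 was calculated from the mean of two measurements.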

Consider `CCCCN(CCCC)C(=O)CN1C[C@H](c2cc(OC)c3c(c2)OCO3)[C@@H](C(=O)O)[C@@H]1CC(C)(C)CCC` [ABT-546], for which the IC50 in assay [1] was found to be 13 µM; on Endothelin-1 receptor, 0.00049 µM.
